In patent publication US11852633B2 (priority 2017, dated 2023):

Tests used:
[1] = Reaction analysis of probe 1 with cysteine (1H NMR, UV-Vis); conditions: deuterated acetonitrile:water, four equivalents of K2CO3
[2] = Racemization analysis of the sensing mixture (CD and 1H NMR)
[3] = Hydrolytic stability of the probes and the sensing product; conditions: aqueous media, also under basic conditions

O=C(O)[C@H](CSc1ccc([N+](=O)[O-])cc1[N+](=O)[O-])Nc1ccc([N+](=O)[O-])cc1[N+](=O)[O-]
time to quantitative conversion of free cysteine to N,S-diarylation product 4 (NMR) [1]: ≤ 7 min | H/D exchange for the proton He attached to the chiral carbon atom ([2]; 1H NMR, 1.25 mM, CD3CN:D2O (4:1), K2CO3, 1 hour): no sign of H/D exchange | product racemization ([2]; CD at 0, 10, 30, 60 and 120 minutes, 35 μM, K2CO3 as base): no sign of product racemization | stability to hydrolysis [3]: hydrolytic stability
